Broadly, the pKi is −log10 of the Ki, conventionally taken in molar units.

Amino acid sequences for entries named in this document (tags omitted). Residues count along the entry.
UniProt P40881, 35-247 limits assumed: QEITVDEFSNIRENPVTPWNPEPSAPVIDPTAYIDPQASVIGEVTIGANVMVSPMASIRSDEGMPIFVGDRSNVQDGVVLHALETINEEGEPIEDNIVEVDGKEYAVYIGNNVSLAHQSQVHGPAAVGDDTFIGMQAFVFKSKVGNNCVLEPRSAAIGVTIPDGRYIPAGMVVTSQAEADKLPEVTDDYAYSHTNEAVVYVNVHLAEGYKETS

This experiment deals with Carbonic anhydrase (Methanosarcina thermophila (strain ATCC 43570 / DSM 1825 / OCM 12 / VKM B-1830 / TM-1), UniProt P40881).

pKi: −log10 of the molar value.

`N#CO` had a pKi of 4.05.

The values above are taken from BindingDB's records for 23769640.
